Data taken from US20030162825A1, “D-amino acid oxidase inhibitors for learning and memory” (SEPRACOR INC., priority 2001, published 2003).

The chains behind the UniProt entries cited, without tags or fusion partners. Where a name states a change or a piece, a line headed by the entry shows the natural chain unless it says otherwise.
UniProt P00371: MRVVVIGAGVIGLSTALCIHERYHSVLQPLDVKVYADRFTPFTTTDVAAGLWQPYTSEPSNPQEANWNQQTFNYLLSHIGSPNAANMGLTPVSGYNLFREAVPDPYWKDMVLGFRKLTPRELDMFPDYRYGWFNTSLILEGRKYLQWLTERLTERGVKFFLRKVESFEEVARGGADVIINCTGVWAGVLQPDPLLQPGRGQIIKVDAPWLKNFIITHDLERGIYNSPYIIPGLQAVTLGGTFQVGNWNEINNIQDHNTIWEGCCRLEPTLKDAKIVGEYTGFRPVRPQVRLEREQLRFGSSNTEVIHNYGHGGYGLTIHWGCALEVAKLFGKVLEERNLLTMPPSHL

Target: T1, Porcine kidney D-amino acid oxidase (Sus scrofa, UniProt P00371)
T1 construct: purchased Sigma Company A-5222; host or cells: porcine kidney
Assay: D-amino acid oxidase inhibition assay (Amplex Red Hydrogen Peroxide Assay Kit)
Assay type: biochemical
Conditions: D-serine substrate; reaction time five minutes
Protocol: A working solution was prepared by mixing: sodium phosphate buffer (8.7 ml, 0.025M, pH 7.4), D-serine solution (1.0 ml, 100 mM in water), horseradish peroxidase (0.2 ml, 200 U/ml in buffer), and Amplex™ Red solution (0.1 ml, 1 mg dye in 200 μl in DMSO (50 μM in DMSO)). A working enzyme solution was prepared by diluting a D-amino oxidase stock solution (65 U/ml) one hundred fold. The working solution (100 μl) was transferred to wells of a Microfluor B microtiter plate and a solution of the inhibitor in DMF was added.
Control experiments were carried out using DMF in the absence of inhibitor.

## CCCC1Nc2c(C(=O)O)ccc([N+](=O)[O-])c2C2C(Cl)C(Sc3ccccc3[N+](=O)[O-])CC12 (stereo not shown) [compound 8]
  IC50: 11 µM
